For this experiment, the system named is HBV. Kind of experiment: Anti-HBV test in infected HepAD38 cells (intracellular viral DNA by Q-PCR). The class given is cell-based. Here is the method: These are hepatoma cells that have been stably transfected with a cDNA copy of the pregenomic RNA of wild-type virus. Withdrawal of tetracycline from the culture medium results in the initiation of viral replication. This offers the advantage, in contrast to the Hep G2.2.15 cell lines commonly used, that there is no, or very limited background viral DNA synthesis. Cells were cultured at 37° C. in a humidified 5% CO2/air atmosphere in seeding medium, DMEM/Ham's F12 (50/50) supplemented with 10% (v/v) heat-inactivated fetal calf serum, 100 IU/ml penicillin, 50 μg/ml streptomycin, 100 Ξg/ml kanamycin, 400 μg/ml G418, and 0.3 μg/ml tetracycline. […] After 2-3 days the cultures were induced for viral production by washing with prewarmed PBS and were fed with […] assay medium (seeding medium without tetracycline and G418) with or without the antiviral compounds. […] The antiviral effect was quantified by measuring levels of intracellular viral DNA at day 6 post-induction, by a real time quantitative PCR (Q-PCR) method. […] The reaction was analyzed using a SDS 7000. […] The amount of viral DNA produced in treated cultures was expressed as a percentage of the mock treated samples. […] The cytostatic effect of the various compounds was assessed employing the parent hepatoma cell line HepG2. The effect of the compounds on exponentially growing HepG2 cells was evaluated by means of the MTS method. […]

Some results are limits rather than exact numbers.

This note sets out measurements from patent US8884011B2, “Nucleotide analogues as precursor molecules for antivirals” (Centre National de la Recherche Scientifique-CNRS, priority 2006, dated 2014).

With `Nc1ncnc2c1ncn2CCOCP(O)(O)=S` [Compound 6, 9-[2-(thiophosphonomethoxy)ethyl]adenine], the “SI selectivity index (TC50/EC50)” value is over 17.
On to `C[C@H](Cn1cnc2c(N)ncnc21)OCP(O)(O)=S` [Compound 11, (R)-9-[2-(thiophosphonomethoxy)propyl]adenine], for which the “SI selectivity index (TC50/EC50)” value was over 77.
